B2AR arrestin: recruits beta-arrestin to the human beta2-adrenergic receptor; beta-arrestin recruitment to beta2AR, cell-based reporter; Potency, µM (highest dose often 46.1 µM), for the others: top-dose activation, most hits filed as activators; actives 0.02% (n = 330,000); AID 492947;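 also: potency is read from the fitted curve at half-maximal effect; 0% = DMSO controls and full agonism = EC100 isoproterenol or metaproterenol; nearly all actives have a fitted effect of over 65% in size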
PINK1 modulator: modulators of PINK1 expression; PINK1 immunofluorescence, high-content cytometry, 24 h; Potency, µM (titrated, usually from 76.6 µM), for inactives: at the highest dose activation (PINK1 increase), hits mostly activators; actives 0.2% (n = 410,000); active = well fitted activation curve with a large enough effect; inconclusive = small, poorly fitted or top-dose-only effect; cell line not stated here; also: potency is read from the fitted curve at half-maximal effect; % of control where 0% means no effect; nearly all actives have a fitted effect of over 65% in size
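Decision-based qHTS: stable cells, 24 h exposure to five compound concentrations, CCCP as control. Fixed cells stained for PINK1 plus nuclear, mitochondrial and cell markers, cytometer read.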
BCR signal inh: inhibitors of chronic active B-cell receptor signaling. ABC-DLBCL IkBa-CBG/CBR reporter, luminescence ratio, 4 h. actives 0.05% (n = 340,000). Potency, µM (doses to about 46.1 µM), inactives show top-dose activity change, negative = inhibition, hits mostly inhibitors; active = well fitted inhibition curve with a large enough effect in the signal ratio, with a control signal flat, not every such curve was filed as active; inconclusive = small, poorly fitted or top-dose-only effect, or effect the other way, or a change in a side signal; the % refers to the signal ratio;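 also: potency is read from the fitted curve at half-maximal effect; plate controls were basal doxycycline-induced cells for no effect and cells given 10 µM MG132 for full effect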
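Cell line TMD8 (human ABC DLBCL), stably expressing tet-inducible CBG68-IkBa fusion and CBR; IMDM/0.5% FBS; cpd up to 46 uM; dox induction, 4 h, 37C/5% CO2; dual luminescence; green/red ratio; MG132 control.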
Pin1 inhibitor: blocks the human prolyl isomerase Pin1 | Q13526 | Pin1 FP peptide displacement, HiFluor488, 10 min | Potency, µM (series often up to 115 µM), inactives show at the highest dose activity, negative = inhibition, actives largely listed as inhibitors | actives 0.009% (n = 390,000); active = well fitted inhibition curve with a large enough effect in the polarisation, with a control signal flat, not every such curve was filed as active; inconclusive = small, poorly fitted or top-dose-only effect, or effect the other way, or a change in a side signal; inactive = no such curve, though single readings can be large or run the other way; the % refers to the polarisation; also: potency is read from the fitted curve at half-maximal effect; % is scaled to controls: 0 for no effect and ±100 for the full control effect
miR-21 reporter: miR-21 reporter, rising signal; HeLa miR-21 FLuc reporter, luciferase, 48 h; Potency, µM (highest dose often 38.3 µM), for the others: top-dose reporter change, positive = more light; 340,000 tested, under 10 active; AID 2288; active = well fitted rising curve with a large enough effect; inconclusive = small, poorly fitted or top-dose-only effect; inactive = no such curve, though single readings can be large or run the other way;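 further: % of control where 0% means no effect; miR-21 action dims this reporter so a rising signal means less miR-21 action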
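HeLa cells endogenously expressing miR-21, stably carrying CMV-driven firefly luciferase with a downstream miR-21 binding site, 2000 cells/well. Titrations up to approximately 40 uM, 48 hours; luciferase luminescence read.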
PKM2 activator: activators of human pyruvate kinase M2 | P14618 | purified PKM2, Kinase-Glo ATP luminescence, activation; response scale: 0% is enzyme alone, no compound | Potency, µM (series often up to 57.5 µM), inactives show at the highest dose activation, actives largely listed as activators | actives 0.34% (n = 260,000) | AID 1631; also: potency is read from the fitted curve at half-maximal effect; % is scaled to controls: 0 for no effect and ±100 for the full control effect; nearly all actives have a fitted effect of over 55% in size
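Purified hPK-M2 (>95%) run at intermediate activity with 0.1 mM ADP and 0.5 mM PEP in 50 mM imidazole pH 7.2, KCl, MgCl2; 1 h room temperature. ATP formed read by Kinase-Glo luminescence; normalized to uninhibited and no-enzyme controls.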
Numbers without * were called inactive; ? = inconclusive; / = no result given; [ ] = remark or other dose. Hits are enriched below; roughly 0.46% of the tested compounds scored in any of these assays. Unless noted, calls follow the shape of the dose curve; as a rule, active = well fitted curve in the direction sought with a large enough effect; inconclusive = small, poorly fitted or top-dose-only effect, or another doubt; inactive = no such curve, though single readings can be large; an effect the other way counts as inactive or inconclusive.

Order of values: PINK1 modulator, BCR signal inh, miR-21 reporter, Pin1 inhibitor, PKM2 activator, B2AR arrestin
1	O=C(CSc1nnc(-c2ccc(O)cc2)o1)Nc1cccc(O)c1
→ -0.8%, ?, -25.2%, -1.9%, 7.94µM*, -0.7%
2	O=C(NC1CCCCC1)C1CCN(S(=O)(=O)c2cccc3nsnc23)CC1
→ 10µM*, 0.7%, -4.9%, -1.2%, 2.4%, -0.9%
3	c1ccc(CNc2c(-c3cccc(SC4CCCCC4)c3)nc3ccccn23)cc1
→ ?, -1.1%, /, -1.3%, /, -0.3%
4	Cc1ccn2c(NCc3ccccc3)c(-c3cccc(SC4CCCCC4)c3)nc2c1
→ 25.1µM*, ?, /, 7.4%, /, -0.1%
5	Cc1ccc2nc(-c3cccc(SC4CCCCC4)c3)c(NCc3ccccc3)n2c1
→ 25.1µM*, 1.4%, /, 0.1%, /, -0.1%
6	COC(=O)[C@@H]1CCCN1C(=O)c1c(OC)cc(=O)n2c1CCN(Cc1ccc3c(c1)CCO3)CC2
→ 0.1%, /, /, /, /, /
7	COc1cc(-c2ccc3ncnc(NCC4CCCO4)c3c2)cc(OC)c1OC (configuration not stated)
→ /, /, /, -4.7%, /, /
8	O=[N+]([O-])c1c(Nc2ccccc2)ccc2nonc12
→ -2.9%, -0.9%, -16.7%, ?, -12.4%, -0.2%
9	Nc1cc(Nc2ccccc2)c2nonc2c1[N+](=O)[O-]
→ 44.7µM*, -1.7%, -13.8%, ?, /, -1.0%
10	Oc1ccc(CNc2ccccc2F)c2cccnc12
→ 28.2µM*, ?, ?, -7.4%, -2.7%, 0.3%

Exported with bars between the fields: entries from further up
cpd | SMILES | PINK1 modulator | BCR signal inh | miR-21 reporter | Pin1 inhibitor | PKM2 activator | B2AR arrestin
6 | COC(=O)[C@@H]1CCCN1C(=O)c1c(OC)cc(=O)n2c1CCN(Cc1ccc3c(c1)CCO3)CC2 | 0.1% | / | / | / | / | /
3 | c1ccc(CNc2c(-c3cccc(SC4CCCCC4)c3)nc3ccccn23)cc1 | ? | -1.1% | / | -1.3% | / | -0.3%

The list continues.
Order of values: PINK1 modulator, BCR signal inh, miR-21 reporter, Pin1 inhibitor, PKM2 activator, B2AR arrestin
11	Oc1ccc(CNc2cccc(F)c2F)c2cccnc12
→ /, ?, /, /, /, 0.0%
12	COc1ccc(O)c(-c2nc3ccccc3c(=O)n2Cc2ccccc2)c1
→ /, /, /, 1.0%, /, /
13	COc1ccc(-n2c(-c3ccccc3)cc3c2CCCC3=O)cc1
→ 9.4%, ?, 18.2%, -1.2%, -2.3%, 1.7%
14	COc1ccc(-n2ccc(=O)c3c2CCCC3=O)cc1
→ 0.8%, -0.6%, 2.5%, 4.4%, 28.2µM*, 0.5%
15	CC[n+]1c(/C=C(\C)SC)sc2ccccc21
→ 4.5%[38.3 µM], ?, 6.0%, 1.2%, 7.9%, 7.0%
16	CC[n+]1c(C=C2C=C(C)OC(C)=C2)sc2ccccc21
→ 22.4µM*, -1.0%, ?, 31.1%, -5.0%, -0.7%
17	CCCNC(=O)c1ccccc1NC(=O)Nc1ccccc1C
→ -1.5%, ?, -0.3%, -3.5%, 2.7%, -0.1%
18	CCCNC(C)C(=O)Nc1ccccc1C (configuration not stated)
→ 0.2%, 9.9%, -3.2%, -2.4%, 1.1%, 3.16µM*
19	COc1cccc(C2c3c(ncn(-c4cccnc4)c3=N)Oc3ccc4ccccc4c32)c1 (configuration not stated)
→ /, /, /, 3.5%, /, /
20	C/C(=N/NC(N)=S)c1ccc(Br)s1
→ -0.8%, 20µM*, 19.7%, 5.2%, -3.0%, ?
21	NCCCC[C@H]1NC(=O)[C@H](CCC(=O)O)NC(=O)c2cc([N+](=O)[O-])cc(I)c2OCC[C@@H](C(N)=O)NC1=O
→ -0.3%, 2.9%, -4.6%, 14.1µM*, 0.2%, -0.7%
22	Cc1ccc(C)c(-n2c3nc(=O)[nH]c(=O)c-3cc3cc([N+](=O)[O-])ccc32)c1
→ -1.5%, ?, ?, ?, 0.7%, -1.1%
23	Cc1cccc(-n2c3nc(=O)[nH]c(=O)c-3cc3cc([N+](=O)[O-])ccc32)c1
→ -3.0%, 11.6µM*, 18.3%, -4.5%, -2.5%, 0.3%
24	COc1ccc(C2=Nn3c(nnc3-c3ccccc3F)SC2)cc1OC1CCCC1
→ 5.3%, 5.8µM*, /, 9.9%, /, -0.5%
25	CCOc1ccc(C2=Nn3c(nnc3-c3ccc(OC)cc3)SC2)cc1
→ 2.1%, 12.6µM*, 15.9%, ?, -5.6%, -0.4%
26	COc1ccc(C2=Nn3c(nnc3-c3ccccc3)SC2)cc1OC
→ 6.9%[38.3 µM], ?, -17.0%, -0.6%, -3.8%, 0.2%
27	CCCc1nnc2n1N=C(c1ccc(OC)c(OC)c1)CS2
→ /, 13µM*, -21.3%, -7.7%, -1.6%, -0.2%
28	Cc1oc(-c2ccccc2NC(=O)c2cccnc2)nc1CNC(=O)c1ccc(N(C)C)cc1
→ -0.4%, /, /, /, /, /
29	COC(=O)c1ccccc1-c1cc(C)cc2c1OC(CNC(=O)c1occc1C)C2 (configuration not stated)
→ 0.4%, /, /, /, /, /
30	CCN1CCCC1CNC(=O)c1cnn(-c2nccc(-c3cccs3)n2)c1C(C)C (configuration not stated)
→ -0.6%, /, /, /, /, /

Shown in transposed form: part of the list above
29. COC(=O)c1ccccc1-c1cc(C)cc2c1OC(CNC(=O)c1occc1C)C2 (configuration not stated)
26. COc1ccc(C2=Nn3c(nnc3-c3ccccc3)SC2)cc1OC

entry no.,29,26
PINK1 modulator,0.4%,6.9%[38.3 µM]
BCR signal inh,/,?
miR-21 reporter,/,-17.0%
Pin1 inhibitor,/,-0.6%
PKM2 activator,/,-3.8%
B2AR arrestin,/,0.2%

Other entries follow.
Order of values: PINK1 modulator, BCR signal inh, miR-21 reporter, Pin1 inhibitor, PKM2 activator, B2AR arrestin
31	CN(C)c1cccc(-c2cnc(N3CCC(c4ncc[nH]4)CC3)s2)c1
→ /, /, /, -1.9%, /, /
32	COc1ccc(C=NNc2ccc([N+](=O)[O-])cn2)cc1
→ 11.2µM*, /, /, 12.3%, /, /
33	COc1cc2cc(C)c(SCC(=O)N3CCN(C(=O)c4ccco4)CC3)nc2cc1OC
→ 0.6%, 11.6%, -6.3%, ?, 17.8µM*, 0.1%
34	CSc1nnc(CCNC(=O)c2ccccc2C(F)(F)F)n1-c1ccc(F)cc1
→ 0.0%, /, /, /, /, /
35	N#Cc1c(C(F)(F)F)cc(-c2ccccc2)nc1SCC(=O)Nc1sc2c(c1C#N)CCC2
→ 12.6µM*, 6.3%, 0.3%, 4.5%, -2.3%, 0.0%
36	COc1ccc(Nc2nc(C#N)nc(NC3CCCC3)n2)cc1
→ /, /, /, 8.0%, /, /
37	CC(C)NC(=O)[C@@H]1C[C@@H](Sc2nc3ccccc3[nH]2)CN1C1Cc2ccccc2C1
→ -0.7%, /, /, /, /, /
38	Cc1cccc(C)c1Nc1sc(C(=O)c2ccccc2)c(N)c1C(=O)Nc1ccc(F)cc1
→ 44.7µM*, ?, 14.9%, -5.9%, /, /
39	CCOc1ccccc1Nc1sc(C(=O)c2ccccc2)c(N)c1C(=O)Nc1ccc(F)cc1
→ 1.2%, -8.8%, 10.9%, 0.2%, /, /
40	Cc1cnc(-n2ncc(C(=O)N(C)CCc3ccccn3)c2-c2cccs2)nc1-c1ccc(F)cc1
→ 0.6%, /, /, /, /, /
41	CCC1C(=O)NCCN1Cc1ccc2c(c1)CN(Cc1cccc(OC)c1OC)CCO2 (configuration not stated)
→ -0.1%, /, /, /, /, /
